# Measured affinities in a library of Ab-14 light chain variants

Data: MIT Lincoln Laboratory AlphaSeq set, Li et al. 2023, doi:10.1038/s41467-023-39022-2, as distributed in FLAb.

All variants were tested on one target, the spike HR2 peptide PDVDLGDISGINAS (SARS-CoV-2).

Ab-14 is the parent antibody, in scFv form: VH, then three GGGGS repeats, then VL. The heavy chain is unchanged in all variants.
VH: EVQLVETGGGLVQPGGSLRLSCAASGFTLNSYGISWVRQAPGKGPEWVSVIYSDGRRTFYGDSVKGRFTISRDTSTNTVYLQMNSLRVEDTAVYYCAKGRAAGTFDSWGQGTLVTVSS
VL: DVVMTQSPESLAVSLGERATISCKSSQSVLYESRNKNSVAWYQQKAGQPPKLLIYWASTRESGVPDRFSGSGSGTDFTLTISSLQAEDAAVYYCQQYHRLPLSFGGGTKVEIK

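The parent was found by panning a naive human phage display library on the peptide. Designed CDR sequences, proposed from the first random library and measured here. Several design methods are mixed in this list. Affinity was read by AlphaSeq, a pooled yeast mating assay with surface-displayed partners. The frequency of each diploid, read from paired DNA barcodes, reflects how well the two displayed proteins bind. The ratio of observed to expected reads was calibrated, replicate by replicate, on BCL2-family standards whose Kd was known from biolayer interferometry. Each pool was mated in six replicate cultures.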

The whole VL of each variant is written out. This list holds designs with at most six substitutions. Kd is apparent (estimated from mating counts) and averaged on the log scale over replicates with a signal. Smaller is tighter. "nd" marks a missing value. The strain was present, yet no cells mated with the target were sequenced in any replicate, which points to weak or no binding. The parent sequence was in this pool as ten entries: three were never detected, three once, and four in most replicates, with averages from 2.2 nM to 240 nM. Values of this round are not directly comparable with the first-round values of the same sequences. Where one sequence has several entries in the source, the replicates are pooled. Empty control strains, which show no peptide, gave a signal in 4% of pairings with all light chain designs; the median was 430 nM and 95% of these signals were weaker than 38 nM. No background was subtracted. For each scFv, signals with the empty controls are counted beside the result. In the paper, a design with two or fewer of six values counts as a poor binder.

* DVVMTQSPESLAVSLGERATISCKFSQSVLYESRNTNSVAWYQQKAGQPPKLLIYYASTRESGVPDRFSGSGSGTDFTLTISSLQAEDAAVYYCQQYHYLPLSFGGGTKVEIK: 7.5 nM (6 of 6 replicates; controls 0 of 18)
* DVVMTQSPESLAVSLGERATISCKSSQSLLYESRNKNSVAWYQQKAGQPPKLLIYWASTREQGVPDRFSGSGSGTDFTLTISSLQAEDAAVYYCQQYHRLPLSFGGGTKVEIK: 11 nM (6 of 6 replicates; controls 0 of 18)
* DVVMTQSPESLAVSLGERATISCKISQSVWYESRNKNSVAWYQQKAGQPPKLLIYAASTRESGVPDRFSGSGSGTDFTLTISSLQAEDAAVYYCQQYHRLCLSFGGGTKVEIK: 1.1 nM (6 of 6 replicates; controls 1 of 18)
* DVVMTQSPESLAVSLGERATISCKSSNSILYESVNKNSVAWYQQKAGQPPKLLIYHASTRESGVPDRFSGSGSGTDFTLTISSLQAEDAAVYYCQQYHRLPLSFGGGTKVEIK: 960 pM (6 of 6 replicates; controls 0 of 18)
* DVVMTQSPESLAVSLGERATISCKLKQSTLYESRNQNSVAWYQQKAGQPPKLLIYWASTRESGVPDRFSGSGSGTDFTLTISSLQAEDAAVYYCQQYHRLPLSFGGGTKVEIK: 10 nM (6 of 6 replicates; controls 0 of 18)
* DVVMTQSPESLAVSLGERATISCKSQQSQDYESRNKNSVAWYQQKAGQPPKLLIYHASTREDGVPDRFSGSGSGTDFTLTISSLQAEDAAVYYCQQYHRLPLSFGGGTKVEIK: 1.6 nM (6 of 6 replicates; controls 1 of 18)
* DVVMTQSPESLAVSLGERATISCKLSQSVLYESRMKNSVAWYQQKAGQPPKLLIYNASQRMSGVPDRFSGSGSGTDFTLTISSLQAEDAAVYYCQQYHRLPLSFGGGTKVEIK: 630 pM (6 of 6 replicates; controls 4 of 18)
* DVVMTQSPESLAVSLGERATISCKSSQSVLYESRNKNDIAWYQQKAGQPPKLLIYWASTRESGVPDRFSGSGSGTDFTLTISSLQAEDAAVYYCQQYHIDPLCFGGGTKVEIK: nd (0 of 6 replicates; controls 0 of 18)
* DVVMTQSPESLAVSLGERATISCKLSQSVEYESRNKNSVAWYQQKAGQPPKLLIYNASTREYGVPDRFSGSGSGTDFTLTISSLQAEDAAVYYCQQYHRLPLAFGGGTKVEIK: 490 pM (6 of 6 replicates; controls 1 of 18)
* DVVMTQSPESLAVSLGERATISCKSSQSVPYESRNKNAVAWYQQKAGQPPKLLIYWASTRESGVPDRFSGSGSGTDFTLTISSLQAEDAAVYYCQQYHRLPLSFGGGTKVEIK: 12 nM (6 of 6 replicates; controls 0 of 18)
* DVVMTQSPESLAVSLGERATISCKLSQSDLYESRNKNNVAWYQQKAGQPPKLLIYMASTRESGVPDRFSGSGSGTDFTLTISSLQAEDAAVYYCQQYHRLPLSFGGGTKVEIK: 1.0 nM (6 of 6 replicates; controls 2 of 18)
* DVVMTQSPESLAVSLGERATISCKDSESVLYESRNKNSIAWYQQKAGQPPKLLIYMASTRESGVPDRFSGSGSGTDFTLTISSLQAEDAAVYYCQQYHRLPLSFGGGTKVEIK: 11 nM (6 of 6 replicates; controls 0 of 18)
* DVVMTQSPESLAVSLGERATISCKSSQSELYESGNKNSVAWYQQKAGQPPKLLIYHASTREDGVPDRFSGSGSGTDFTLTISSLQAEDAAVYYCQQYHRLPLSFGGGTKVEIK: 16 nM (4 of 6 replicates; controls 0 of 18)
* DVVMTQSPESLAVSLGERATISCKSSISDLYESRNKNSVAWYQQKAGQPPKLLIYEASTREQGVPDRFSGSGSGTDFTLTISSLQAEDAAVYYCQQYHRLPLSFGGGTKVEIK: 4.2 nM (6 of 6 replicates; controls 0 of 18)
* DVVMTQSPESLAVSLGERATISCKSSQSVLYESSNKNSVAWYQQKAGQPPKLLIYNASTRESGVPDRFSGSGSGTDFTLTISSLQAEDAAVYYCQQYHRLPLSFGGGTKVEIK: 80 nM (6 of 6 replicates; controls 0 of 18)
* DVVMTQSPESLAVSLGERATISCKSSQSVLYESRNKNSVAWYQQKAGQPPKLLIYWASTREAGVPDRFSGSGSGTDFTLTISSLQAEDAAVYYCQQYHRLPLSFGGGTKVEIK: 35 nM (6 of 6 replicates; controls 1 of 18)
* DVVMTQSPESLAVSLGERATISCKISQSWLYESRNKNSVAWYQQKAGQPPKLLIYNASTRESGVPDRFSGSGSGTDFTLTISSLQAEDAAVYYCQQYHRLPLSFGGGTKVEIK: 600 pM (12 of 12 replicates; controls 4 of 36)
* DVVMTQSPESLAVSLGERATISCKSSQSWLYESRNKNSVAWYQQKAGQPPKLLIYNASQRESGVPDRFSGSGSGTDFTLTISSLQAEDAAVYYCQQYHRLPLSFGGGTKVEIK: 590 pM (6 of 6 replicates; controls 0 of 18)
* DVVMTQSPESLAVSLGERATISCKSSQSVPYESRNKNSVAWYQQKAGQPPKLLIYYASQRESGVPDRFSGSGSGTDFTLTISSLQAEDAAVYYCQQYHRLPLSFGGGTKVEIK: 27 nM (6 of 6 replicates; controls 1 of 18)
* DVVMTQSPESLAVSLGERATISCKSSQSVLYESRNANMVAWYQQKAGQPPKLLIYWASTRESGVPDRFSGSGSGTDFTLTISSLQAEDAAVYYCQQYHRFPLSFGGGTKVEIK: nd (0 of 6 replicates; controls 0 of 18)
* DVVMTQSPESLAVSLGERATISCDSSQSVLYESGNTNSVAWYQQKAGQPPKLLIYWASTRESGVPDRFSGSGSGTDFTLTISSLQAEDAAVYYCCQYHRLPLSFGGGTKVEIK: nd (0 of 6 replicates; controls 0 of 18)
* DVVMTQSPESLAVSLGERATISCKSSQSVLYASKNKNSVAWYQQKAGQPPKLLIYWASTRESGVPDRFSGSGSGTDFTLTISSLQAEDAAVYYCQQYHRLPLSFGGGTKVEIK: nd (0 of 6 replicates; controls 0 of 18)

Excerpt, the final 2 entries:

* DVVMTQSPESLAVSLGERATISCDSSQSVLYESGNTNSVAWYQQKAGQPPKLLIYWASTRESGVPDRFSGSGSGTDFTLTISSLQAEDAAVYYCCQYHRLPLSFGGGTKVEIK = nd (0 of 6 replicates; controls 0 of 18)
* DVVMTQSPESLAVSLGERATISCKSSQSVLYASKNKNSVAWYQQKAGQPPKLLIYWASTRESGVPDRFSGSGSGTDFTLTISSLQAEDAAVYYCQQYHRLPLSFGGGTKVEIK = nd (0 of 6 replicates; controls 0 of 18)